We go through one molecule from ChEMBL document CHEMBL3872252, “New bithiazolyl hydrazones: Novel synthesis, characterization and antitubercular evaluation” (Bioorg Med Chem Lett, 2017).

Details in all cases: read-out: Selectivity Index
The nature of series [1]: Selectivity index, ratio of GI50 for human HCT116 cells to MIC90 for Mycobacterium bovis BCG ATCC 35743 dormant stage. Format: toxicity, cell-based, HCT-116. Summed up: (§1)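 Cytotoxicity was measured on human MCF-7, HCT116 and THP-1 cells by MTT assay, with paclitaxel as reference. GI50 is the concentration inhibiting 50% of cell growth. The selectivity index is GI50 for the given cell line divided by MIC90 for the given mycobacterial strain and stage.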

The nature of series [2]: Selectivity index, ratio of GI50 for human THP1 cells to MIC90 for Mycobacterium bovis BCG ATCC 35743 dormant stage. Format: toxicity, cell-based, THP-1. Summed up: as §1
The nature of series [3]: Selectivity index, ratio of GI50 for human MCF7 cells to MIC90 for Mycobacterium bovis BCG ATCC 35743 dormant stage. In kind it is toxicity, cell-based. Summed up: as §1
Series [4] can be described thus: Selectivity index, ratio of GI50 for human THP1 cells to MIC90 for Mycobacterium tuberculosis H37Ra ATCC 25177 dormant stage. Format: toxicity, cell-based, THP-1. Summed up: as §1

On to `CO[C@H]1/C=C/O[C@@]2(C)Oc3c(C)c(O)c4c(O)c(c(/C=N/N5CCN(C)CC5)c(O)c4c3C2=O)NC(=O)/C(C)=C\C=C\[C@H](C)[C@H](O)[C@@H](C)[C@@H](O)[C@@H](C)[C@H](OC(C)=O)[C@@H]1C` [RIFAMPIN], for which the selectivity ratio in series [1] was 123; in series [2] it was 123; in series [3], 123; in series [4], 133.
